Experimental data as given in patent US20240409582A1, “DESIGN AND CHARACTERIZATION OF INHIBITORY PEPTIDES (IPEPS) DERIVED FROM OF MIEN 1 PROTEIN SEQUENCE” (priority 2022, published 2024).

Assays:
[1] = Mouse liver microsome stability; format: in vitro ADME; conditions: 2 μM, 0.5 mg/mL microsome protein, NADPH
Protocol: (§1) Analytical LC-MS/MS conditions.
Mouse liver microsome stability. Male ICR/CD-1 mouse microsome fractions (lot 2110330) were purchased from Xenotech (Kansas City, KS). Microsome protein (0.5 mg/mL) was placed in a glass screw cap tube; a 2 mM DMSO stock of (D/L)-LA3IK and (D/L)-RP-7 were spiked into separate 50 mM Tris, pH 7.5 solution and this was added to the microsome solution on ice. The final concentration of compounds after addition of all reagents was 2 μM. An NADPH-regenerating system (1.7 mg/ml NADP, 7.8 mg/ml glucose-6-phosphate, 6 U/ml glucose-6-phosphate dehydrogenase in 2% w/v NaHCO3/10 mM MgCl2) was added for analysis of Phase I metabolism after heating both the regenerating solution and the sample tubes to 37° C. for 5 min in a 37° C. shaking water bath. The incubation was continued and at varying time points after addition of phase I cofactors, the reaction was stopped by the addition of 0.5 ml of acetonitrile containing IS and formic acid such that the final concentration of IS was 100 ng/ml and acid was 0.1%. Time 0 samples were stopped with the acetonitrile solution while still on ice prior to addition of the NADPH regenerating system and compound, which were subsequently added. […] The supernatant was analyzed by LC-MS/MS. […] The half-life (T ½) was calculated as T ½=0.693/slope.

Plasma stability = format: in vitro ADME, mouse; conditions: 2 μM, 37° C., up to 24 hours
Protocol: as §1
Plasma Stability. CD1 mouse plasma isolated using acidified citrate dextrose (ACD) was purchased from BioIVT and a DMSO stock of each compound was diluted into it at a final concentration of 2 μM. An aliquot was immediately removed for a zero time point and quenched with an equal volume of acetonitrile containing 0.2% formic acid and 200 ng/ml Tolbutamide IS. The remainder of the sample was incubated in a 37° C. water bath for up to 24 hours. Samples were removed at the indicated times and processed as described for the zero time point. After vortexing and centrifugation to pellet protein, the supernatant was analyzed by LC-MS/MS as described above. A control incubation was conducted in saline (0.9% NaCl).

Substance | Mouse Microsome T 1/2 [1] | Murine Plasma T 1/2 (Plasma stability)
d(R)d(P)d(P)d(C)d(V)d(I)d(L) [D-RP-7] | >2 h | 0.12 h
d(L)d(A)d(I)d(A)d(V)d(K) [D-LA3IK] | >2 h | >24 h
